# Reported melting point values for industrial, environmental and drug-like chemicals

Data: OPERA 2.9 data sets, kmansouri/OPERA on GitHub.

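These are experimental values that the OPERA curators gathered from public databases to train and test their QSAR models. The files give a single number for a compound and property, which may rest on several reports. Method and conditions are not stated for these values. Where a salt, mixture or single isomer is drawn, the source does not say that exactly this form was tested. Unmarked limits or estimates from the upstream databases cannot be ruled out.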

Melting points are in °C.
Cells with "–" have no entry in this list.

| compound | name | MP (°C) |
|---|---|---|
| COC(=O)Cc1c(C)n[nH]c1C | methyl (3,5-dimethyl-1H-pyrazol-4-yl)acetate | 53 |
| O=C1Nc2c(ccc(Cl)c2Cl)C1=O | 6,7-Dichloro-1H-indole-2,3-dione | 204 |
| O=C(O)Cn1cccnc1=O | (2-oxopyrimidin-1(2H)-yl)acetic acid | 212 |
| CC(C)(C)N(NC(=O)c1ccccc1)C(=O)c1c(Cl)cccc1Cl | N'-Benzoyl-N-tert-butyl-2,6-dichlorobenzohydrazide | 198 |
| O=[N+]([O-])c1cc(S(=O)(=O)N2CCOCC2)ccc1Cl | 4-(4-Chloro-3-nitro-benzenesulfonyl)-morpholine | 154 |
| O=C(O)CNC(=O)C(F)(F)F | N-(Trifluoroacetyl)aminoacetic acid | 153 |
| NNC(=O)Cc1ccc(F)cc1 | 2-(4-fluorophenyl)acetohydrazide | 130 |
| COc1c(F)c(F)cc(C(=O)O)c1F | 2,4,5-Trifluoro-3-methoxybenzoic acid | 114.5 |
| ClCc1csc(-c2ccccc2Cl)n1 | 4-(chloromethyl)-2-(2-chlorophenyl)-1,3-thiazole | 56 |
| O=C=Nc1ccc(C(c2ccc(N=C=O)cc2)c2ccc(N=C=O)cc2)cc1 (stereo not drawn) | Benzene, 1,1',1''-methylidynetris[4-isocyanato- | 74.4 |
| Cc1cc(C)c2c(N)c(C(=O)NN)sc2n1 | 3-amino-4,6-dimethylthieno[2,3-b]pyridine-2-carbohydrazide | 246 |
| CCCCC1CCC(C2CCC(c3ccc(OCC)c(F)c3F)CC2)CC1 (stereo not drawn) | – | 114.4 |
| COc1ccc(-n2c(C)c(C)c3c(N)ncnc32)cc1 | – | 232 |
| FC(F)(F)COc1cccnc1Cl | 2-Chloro-3-(2,2,2-trifluoroethoxy)pyridine | 41.8 |
| OC[C@@H]1CO[C@@](Cn2cncn2)(c2ccc(Cl)cc2Cl)O1 (relative stereo) | – | 135.6 |
| COC(=O)c1ccc(C(F)(F)F)cc1N | Methyl 2-amino-4-(trifluoromethyl)benzoate | 59 |
| COCCCNCC1COc2ccccc2O1.Cl (stereo not drawn) | – | 184 |
| Cc1nn2cccnc2c1C(=O)O | 2-methylpyrazolo[1,5-a]pyrimidine-3-carboxylic acid | 177 |
| c1ccc(-c2nnco2)cc1 | 1,3,4-Oxadiazole, 2-phenyl- | 36 |
| CC(C)CCCCCOC(=O)CCC(=O)OCCCCCC(C)C | Diisooctyl succinate | -64 |
| CC(=O)CCCCCl | 6-Chlorohexan-2-one | -30.9 |
| CCCCCCCC/C=C\CCCCCCCC(=O)NCCCN(C)CCCNC(=O)CCCCCCC/C=C\CCCCCCCC | – | 41.7 |
| CCCCC(CC)CNC(=O)c1ccc(N=Nc2c(C)c(C#N)c(=O)n(C)c2O)cc1 (stereo not drawn) | – | 182.3 |
| O=C(O)CS(=O)(=O)c1ccc([N+](=O)[O-])cc1 | [(4-nitrophenyl)sulfonyl]acetic acid | 163 |
| CC(=O)OCC(=O)[C@H]1[C@H](C)C[C@H]2[C@@H]3C[C@H](F)C4=CC(=O)CC[C@]4(C)[C@H]3CC[C@@]21C | – | 144 |
| NS(=O)(=O)c1cc(S(=O)(=O)c2cccc(O)c2)co1 | 4-[(3-Hydroxyphenyl)sulfonyl]-2-thiophenesulfonamide | 145 |
| CNC1=NS(=O)(=O)c2ccccc21 | 3-(Methylamino)-1H-1lambda~6~,2-benzothiazole-1,1-dione | 270 |
| N#CCc1ccccc1OCc1ccccc1 | 2-Benzyloxyphenylacetonitrile | 76.5 |
| c1ccc(-c2ccc(-c3nc(-c4ccc(-c5ccccc5)cc4)nc(-c4ccc(-c5ccccc5)cc4)n3)cc2)cc1 | Tris-biphenyl triazine | 281.3 |
| N#CCC(=O)c1ccc(Cl)cc1Cl | 3-(2,4-Dichlorophenyl)-3-oxopropanenitrile | 63 |
| C=C(C)C(=O)OCCCCCCOC(=O)C(=C)C | 1,6-Hexanediol dimethacrylate | -0.445 |

5 of these entries, quoted again:

compound	name	MP (°C)
c1ccc(-c2nnco2)cc1	1,3,4-Oxadiazole, 2-phenyl-	36
OC[C@@H]1CO[C@@](Cn2cncn2)(c2ccc(Cl)cc2Cl)O1 (relative stereo)	–	135.6
c1ccc(-c2ccc(-c3nc(-c4ccc(-c5ccccc5)cc4)nc(-c4ccc(-c5ccccc5)cc4)n3)cc2)cc1	Tris-biphenyl triazine	281.3
O=C1Nc2c(ccc(Cl)c2Cl)C1=O	6,7-Dichloro-1H-indole-2,3-dione	204
COCCCNCC1COc2ccccc2O1.Cl (stereo not drawn)	–	184